Results as given in patent US6858018B1.
This is a selection: effects in other tests are not listed, and their absence says nothing.

Assay: in vitro iontophoretic delivery through excised porcine skin in flow-through cells
Conditions: 500 uA

remifentanil hydrochloride
Flux (Exp #1, 10 mg/ml in water, 1 mg, 0.00 hrs): 0.00 μg/min/cm^2 | Flux (Exp #1, 10 mg/ml in water, 1 mg, 1.00 hrs): 0.00 μg/min/cm^2 | Flux (Exp #1, 10 mg/ml in water, 1 mg, 2.00 hrs): 0.00 μg/min/cm^2 | Flux (Exp #1, 10 mg/ml in water, 1 mg, 3.00 hrs): 0.02 μg/min/cm^2 | Flux (Exp #1, 10 mg/ml in water, 1 mg, 4.00 hrs): 0.03 μg/min/cm^2 | Flux (Exp #1, 10 mg/ml in water, 1 mg, 5.00 hrs): 0.05 μg/min/cm^2 | Flux (Exp #1, 10 mg/ml in water, 1 mg, 6.00 hrs): 0.07 μg/min/cm^2 | Flux (Exp #1, 10 mg/ml in water, 1 mg, 7.00 hrs): 0.09 μg/min/cm^2 | Flux (Exp #1, 10 mg/ml in water, 1 mg, 8.00 hrs): 0.11 μg/min/cm^2 | Flux (Exp #1, 10 mg/ml in water, 1 mg, 9.00 hrs): 0.12 μg/min/cm^2 | Flux (Exp #1, 10 mg/ml in water, 1 mg, 10.00 hrs): 0.15 μg/min/cm^2 | Flux (Exp #1, 10 mg/ml in water, 1 mg, 11.00 hrs): 0.16 μg/min/cm^2 | Flux (Exp #1, 10 mg/ml in water, 1 mg, 12.00 hrs): 0.18 μg/min/cm^2 | Flux (Exp #1, 10 mg/ml in water, 1 mg, 13.00 hrs): 0.20 μg/min/cm^2 | Flux (Exp #1, 10 mg/ml in water, 1 mg, 14.00 hrs): 0.22 μg/min/cm^2 | Flux (Exp #1, 10 mg/ml in water, 1 mg, 15.00 hrs): 0.23 μg/min/cm^2 | Flux (Exp #1, 10 mg/ml in water, 1 mg, 16.00 hrs): 0.24 μg/min/cm^2 | Flux (Exp #1, 10 mg/ml in water, 1 mg, 17.00 hrs): 0.25 μg/min/cm^2 | Flux (Exp #1, 10 mg/ml in water, 1 mg, 18.00 hrs): 0.26 μg/min/cm^2 | Flux (Exp #1, 10 mg/ml in water, 1 mg, 19.00 hrs): 0.26 μg/min/cm^2 | Flux (Exp #1, 10 mg/ml in water, 1 mg, 20.00 hrs): 0.26 μg/min/cm^2 | Flux (Exp #1, 10 mg/ml in water, 1 mg, 21.00 hrs): 0.24 μg/min/cm^2 | Flux (Exp #1, 10 mg/ml in water, 1 mg, 22.00 hrs): 0.23 μg/min/cm^2 | Flux (Exp #1, 10 mg/ml in water, 1 mg, 23.00 hrs): 0.22 μg/min/cm^2 | Flux (Exp #1, 10 mg/ml in water, 1 mg, 24.00 hrs): 0.20 μg/min/cm^2 | Flux (Exp #1, 10 mg/ml in water, 1 mg, −1.00 hrs): 0.00 μg/min/cm^2 | Flux (Exp #2, 20 mg/ml in water, 2 mg, 0.00 hrs): 0.00 μg/min/cm^2 | Flux (Exp #2, 20 mg/ml in water, 2 mg, 1.00 hrs): 0.00 μg/min/cm^2 | Flux (Exp #2, 20 mg/ml in water, 2 mg, 2.00 hrs): 0.02 μg/min/cm^2 | Flux (Exp #2, 20 mg/ml in water, 2 mg, 3.00 hrs): 0.03 μg/min/cm^2 | Flux (Exp #2, 20 mg/ml in water, 2 mg, 4.00 hrs): 0.05 μg/min/cm^2 | Flux (Exp #2, 20 mg/ml in water, 2 mg, 5.00 hrs): 0.05 μg/min/cm^2 | Flux (Exp #2, 20 mg/ml in water, 2 mg, 6.00 hrs): 0.06 μg/min/cm^2 | Flux (Exp #2, 20 mg/ml in water, 2 mg, 7.00 hrs): 0.06 μg/min/cm^2 | Flux (Exp #2, 20 mg/ml in water, 2 mg, 8.00 hrs): 0.06 μg/min/cm^2 | Flux (Exp #2, 20 mg/ml in water, 2 mg, 9.00 hrs): 0.07 μg/min/cm^2 | Flux (Exp #2, 20 mg/ml in water, 2 mg, 10.00 hrs): 0.07 μg/min/cm^2 | Flux (Exp #2, 20 mg/ml in water, 2 mg, 11.00 hrs): 0.08 μg/min/cm^2 | Flux (Exp #2, 20 mg/ml in water, 2 mg, 12.00 hrs): 0.09 μg/min/cm^2 | Flux (Exp #2, 20 mg/ml in water, 2 mg, 13.00 hrs): 0.10 μg/min/cm^2 | Flux (Exp #2, 20 mg/ml in water, 2 mg, 14.00 hrs): 0.11 μg/min/cm^2 | Flux (Exp #2, 20 mg/ml in water, 2 mg, 15.00 hrs): 0.12 μg/min/cm^2 | Flux (Exp #2, 20 mg/ml in water, 2 mg, 16.00 hrs): 0.14 μg/min/cm^2 | Flux (Exp #2, 20 mg/ml in water, 2 mg, 17.00 hrs): 0.15 μg/min/cm^2 | Flux (Exp #2, 20 mg/ml in water, 2 mg, 18.00 hrs): 0.17 μg/min/cm^2 | Flux (Exp #2, 20 mg/ml in water, 2 mg, 19.00 hrs): 0.19 μg/min/cm^2 | Flux (Exp #2, 20 mg/ml in water, 2 mg, 20.00 hrs): 0.21 μg/min/cm^2 | Flux (Exp #2, 20 mg/ml in water, 2 mg, 21.00 hrs): 0.23 μg/min/cm^2 | Flux (Exp #2, 20 mg/ml in water, 2 mg, 22.00 hrs): 0.26 μg/min/cm^2 | Flux (Exp #2, 20 mg/ml in water, 2 mg, 23.00 hrs): 0.27 μg/min/cm^2 | Flux (Exp #2, 20 mg/ml in water, 2 mg, 24.00 hrs): 0.29 μg/min/cm^2 | Flux (Exp #2, 20 mg/ml in water, 2 mg, −1.00 hrs): 0.00 μg/min/cm^2 | Flux (Exp #3, 10 mg/ml in water, 3 mg, 0.00 hrs): 0.00 μg/min/cm^2 | Flux (Exp #3, 10 mg/ml in water, 3 mg, 1.00 hrs): 0.00 μg/min/cm^2 | Flux (Exp #3, 10 mg/ml in water, 3 mg, 2.00 hrs): 0.01 μg/min/cm^2 | Flux (Exp #3, 10 mg/ml in water, 3 mg, 3.00 hrs): 0.03 μg/min/cm^2 | Flux (Exp #3, 10 mg/ml in water, 3 mg, 4.00 hrs): 0.04 μg/min/cm^2 | Flux (Exp #3, 10 mg/ml in water, 3 mg, 5.00 hrs): 0.04 μg/min/cm^2 | Flux (Exp #3, 10 mg/ml in water, 3 mg, 6.00 hrs): 0.04 μg/min/cm^2 | Flux (Exp #3, 10 mg/ml in water, 3 mg, 7.00 hrs): 0.04 μg/min/cm^2 | Flux (Exp #3, 10 mg/ml in water, 3 mg, 8.00 hrs): 0.03 μg/min/cm^2 | Flux (Exp #3, 10 mg/ml in water, 3 mg, 9.00 hrs): 0.03 μg/min/cm^2 | Flux (Exp #3, 10 mg/ml in water, 3 mg, 10.00 hrs): 0.033 μg/min/cm^2 | Flux (Exp #3, 10 mg/ml in water, 3 mg, 11.00 hrs): 0.035 μg/min/cm^2 | Flux (Exp #3, 10 mg/ml in water, 3 mg, 12.00 hrs): 0.037 μg/min/cm^2 | Flux (Exp #3, 10 mg/ml in water, 3 mg, 13.00 hrs): 0.039 μg/min/cm^2 | Flux (Exp #3, 10 mg/ml in water, 3 mg, 14.00 hrs): 0.04 μg/min/cm^2 | Flux (Exp #3, 10 mg/ml in water, 3 mg, 15.00 hrs): 0.047 μg/min/cm^2 | Flux (Exp #3, 10 mg/ml in water, 3 mg, 16.00 hrs): 0.05 μg/min/cm^2 | Flux (Exp #3, 10 mg/ml in water, 3 mg, 17.00 hrs): 0.058 μg/min/cm^2 | Flux (Exp #3, 10 mg/ml in water, 3 mg, 18.00 hrs): 0.06 μg/min/cm^2 | Flux (Exp #3, 10 mg/ml in water, 3 mg, 19.00 hrs): 0.072 μg/min/cm^2 | Flux (Exp #3, 10 mg/ml in water, 3 mg, 20.00 hrs): 0.08 μg/min/cm^2 | Flux (Exp #3, 10 mg/ml in water, 3 mg, 21.00 hrs): 0.098 μg/min/cm^2 | Flux (Exp #3, 10 mg/ml in water, 3 mg, 22.00 hrs): 0.12 μg/min/cm^2 | Flux (Exp #3, 10 mg/ml in water, 3 mg, 23.00 hrs): 0.124 μg/min/cm^2
